# Data: PubChem BioAssay AID485272 (The Scripps Research Institute Molecular Screening Center, 2010)
# Amino acid sequences for entries named in this document (tags omitted).
# UniProt Q9UM07, whole entry: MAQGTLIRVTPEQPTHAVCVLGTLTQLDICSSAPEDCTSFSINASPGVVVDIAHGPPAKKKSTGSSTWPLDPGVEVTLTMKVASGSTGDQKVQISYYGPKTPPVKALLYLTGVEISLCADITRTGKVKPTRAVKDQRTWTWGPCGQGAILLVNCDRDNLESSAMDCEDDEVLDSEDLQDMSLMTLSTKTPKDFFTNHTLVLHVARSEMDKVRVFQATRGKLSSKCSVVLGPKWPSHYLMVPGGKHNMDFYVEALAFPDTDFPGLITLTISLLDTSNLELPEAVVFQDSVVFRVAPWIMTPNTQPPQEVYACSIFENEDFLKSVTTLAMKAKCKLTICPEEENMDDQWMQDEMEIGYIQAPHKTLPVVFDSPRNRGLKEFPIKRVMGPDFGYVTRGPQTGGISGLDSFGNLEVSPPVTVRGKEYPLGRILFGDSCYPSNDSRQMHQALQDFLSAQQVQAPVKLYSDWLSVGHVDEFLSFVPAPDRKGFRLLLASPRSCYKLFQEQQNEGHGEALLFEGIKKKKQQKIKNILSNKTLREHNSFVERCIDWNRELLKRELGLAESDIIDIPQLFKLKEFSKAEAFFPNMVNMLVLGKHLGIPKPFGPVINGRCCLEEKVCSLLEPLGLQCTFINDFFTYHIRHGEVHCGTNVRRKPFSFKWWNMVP
# The list shows a part of the results, in another mix than the full data. The source made the active and inactive calls.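 How the source made its calls: active means percent inhibition above a cutoff equal to the mean of all tested compounds plus 3 SD (cut at about 15% in these data); inactive means the rest.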
# Biological target: Protein-arginine deiminase type-4 (Homo sapiens) (UniProt Q9UM07)
# Experiment: protein arginine deiminase 4 enzyme blockade – biochemical, fluorescence polarization, 1536-well format, primary screen (AID 485272);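 further: 0% = PAD4 with RCA probe and DMSO and 100% = probe without PAD4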
# Conditions: recombinant PAD4, RCA probe fluorescence polarization; at 6.36 µM; active compounds read high
row,Structure (SMILES),inhibition
1,CCCOc1ccc(NP(C)(=O)Oc2ccc(Cl)cc2)cc1 (stereo unspecified),inactive: -2.78%
